Source: ChEMBL document CHEMBL4265908, “Structure-activity and structure-property relationships of novel Nrf2 activators with a 1,2,4-oxadiazole core and their therapeutic effects on acetaminophen (APAP)-induced acute liver injury” (Eur J Med Chem, 2018)

Experiments:
Assay type in all cases: cell-based
[1] = target: T1, Nuclear factor erythroid 2-related factor 2 (Homo sapiens) (UniProt Q16236); experiment: Activation of Nrf2 in human HepG2-ARE-C8 cells assessed as induction of ARE-mediated luciferase activity at 80 uM after 24 hrs by luciferase reporter gene assay relative to control
T1 sequence (whole entry): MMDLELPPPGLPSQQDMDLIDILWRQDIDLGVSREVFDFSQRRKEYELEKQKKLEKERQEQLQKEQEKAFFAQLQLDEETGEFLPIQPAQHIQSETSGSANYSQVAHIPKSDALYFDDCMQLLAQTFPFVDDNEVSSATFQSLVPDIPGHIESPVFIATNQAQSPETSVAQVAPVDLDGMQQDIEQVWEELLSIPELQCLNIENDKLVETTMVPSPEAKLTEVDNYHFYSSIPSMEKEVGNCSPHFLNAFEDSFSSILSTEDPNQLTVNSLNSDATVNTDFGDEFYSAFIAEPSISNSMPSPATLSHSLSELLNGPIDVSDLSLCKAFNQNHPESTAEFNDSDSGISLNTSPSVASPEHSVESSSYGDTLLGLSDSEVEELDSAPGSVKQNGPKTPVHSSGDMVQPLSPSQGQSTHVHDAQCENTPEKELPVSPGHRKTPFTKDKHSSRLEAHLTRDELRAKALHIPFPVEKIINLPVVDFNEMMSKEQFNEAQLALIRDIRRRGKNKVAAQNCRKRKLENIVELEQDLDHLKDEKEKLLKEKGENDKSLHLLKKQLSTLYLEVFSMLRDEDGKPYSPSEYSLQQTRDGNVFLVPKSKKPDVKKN
In short: (§1)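 HepG2-ARE-C8 cells stably carrying ARE-luciferase, grown in DMEM with 10% FBS at 37 °C and 5% CO2. Seeded at 5 × 10^4 cells/well, left overnight, then given compound diluted from a 10 mM DMSO stock for 24 h. Cells lysed and luciferase read as RLU. Inductivity = (RLUtest − RLUblank)/(RLUcontrol − RLUblank), with DMSO as control. Mean ± SEM of three experiments.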

[2] = target: T1, Nuclear factor erythroid 2-related factor 2 (Homo sapiens); experiment: Activation of Nrf2 in human HepG2-ARE-C8 cells assessed as induction of ARE-mediated luciferase activity at 0.1 uM after 24 hrs by luciferase reporter gene assay relative to control; in short: as §1
[3] = target: T1, Nuclear factor erythroid 2-related factor 2 (Homo sapiens); experiment: Activation of Nrf2 in human HepG2-ARE-C8 cells assessed as induction of ARE-mediated luciferase activity at 1 uM after 24 hrs by luciferase reporter gene assay relative to control; in short: as §1
[4] = target: T1, Nuclear factor erythroid 2-related factor 2 (Homo sapiens); experiment: Activation of Nrf2 in human HepG2-ARE-C8 cells assessed as induction of ARE-mediated luciferase activity at 40 uM after 24 hrs by luciferase reporter gene assay relative to control; in short: as §1
[5] = target: T1, Nuclear factor erythroid 2-related factor 2 (Homo sapiens); experiment: Activation of Nrf2 in human HepG2-ARE-C8 cells assessed as induction of ARE-mediated luciferase activity at 20 uM after 24 hrs by luciferase reporter gene assay relative to control; in short: as §1

`Fc1ccc(-c2nc(-c3ccc4nc[nH]c4c3)no2)cc1` was tested, and the Activity [1] was 44.4, the Activity [2] was 2.49 and the Activity [3] was 10.2. The Activity [4] was 40.8 and the Activity [5] was 27.3.
